## Binding of CDR-mutated scFvs to a peptide of the spike HR2 region

All variants were tested on one target, the spike HR2 peptide PDVDLGDISGINAS (SARS-CoV-2).

Ab-14 is the parent antibody, in scFv form: VH, then a (GGGGS)3 linker, then VL. The light chain is unchanged in all variants.
VH: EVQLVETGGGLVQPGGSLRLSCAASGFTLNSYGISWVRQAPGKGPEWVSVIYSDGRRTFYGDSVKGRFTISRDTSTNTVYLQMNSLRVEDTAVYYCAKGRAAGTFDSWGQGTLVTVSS
VL: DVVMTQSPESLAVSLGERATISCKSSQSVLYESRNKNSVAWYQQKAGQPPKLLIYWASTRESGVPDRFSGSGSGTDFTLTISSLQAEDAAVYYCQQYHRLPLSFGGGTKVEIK

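Phage display of a naive human antibody library on the peptide gave the parent. Designed CDR sequences, proposed from the first random library and measured here. Group labels follow the data file (Ctrl: baseline library sampled from a position-specific scoring matrix, with some repeated check sequences; En: ensemble of fine-tuned language models; HC: hill climbing; Gen: genetic algorithm; Gibbs: Gibbs sampling; a sequence that several methods proposed may carry one label only). The scFvs were displayed on barcoded MATa yeast, the peptide on MATalpha yeast. After mating in shaken culture at 30 °C for 16 h, diploids were selected and their barcode pairs sequenced. A regression on co-assayed BCL2-family reference pairs converts the normalised counts of each replicate to an apparent Kd. The assay was run in six technical replicates.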

The parent's heavy chain CDRs are GFTLNSYGIS, VIYSDGRRTFYGDSVK, GRAAGTFDS; each variant's own CDRs replace them letter for letter. Variants here have more than six changes. Each Kd is an estimate from the mating assay, the geometric mean of the replicates in which the pair was seen; lower is stronger. A pair that was not seen in any replicate is written "nd"; this usually means weak binding, but a binder can also be missed.

The variant GFDLNEYGIS, VIYADGMRTAYSDSVK, GVNAGTFDI [En_Gen] gave 490 pM (6 of 6 replicates; controls 1 of 18).
The variant GFDLNEYGIS, VIYADGKRTAYADDVK, GNVAGTFDM [En_Gen] gave 660 pM (6 of 6 replicates; controls 0 of 18).
The variant GFDLEKYGIS, VIYADGKRVAYSDAVK, GGTGGMLMS [En_Gibbs] gave nd (0 of 6 replicates; controls 0 of 18).
The variant GFDLNEYGIS, VIYADGMRTVYADDVK, GNVAGTFDL [En_Gen] gave 39 pM (6 of 6 replicates; controls 0 of 18).
The variant GFDLNEYGIS, VIYADGVRTAYADKVK, GNEAGTFDV [En_Gen] gave 450 pM (6 of 6 replicates; controls 0 of 18).
The variant GFDINEYGIS, VIYADGMRKAYVQNVK, GENARSVQI [En_Gibbs] gave nd (0 of 6 replicates; controls 0 of 18).
The variant GFNFDEYGIS, VIYADGKRNFYSDSVK, GYITGFMEV [En_Gibbs] gave nd (0 of 6 replicates; controls 0 of 18).
The variant GFDLEEYGIS, VIYADGQRTAYADSVK, GNVAGTFDQ [En_Gen] gave 240 pM (6 of 6 replicates; controls 0 of 18).
The variant GFKLDEYGIS, VIYADGRRTFYADSVK, GEQAGTFDI [En_HC] gave 330 pM (6 of 6 replicates; controls 0 of 18).
The variant GDGLLEMGIS, VIYADGMREAYVEDVK, GQTGGTFVL [En_Gibbs] gave 2.8 nM (1 of 6 replicates; controls 0 of 18).
The variant GFDLNEYGIS, VIYADGRRTFYSDSVK, GEIAGTFDN [En_HC] gave 560 pM (6 of 6 replicates; controls 0 of 18).
The variant GFDLESYGIS, VIYADGMRTSYTANVK, GKNVMIMTG [En_Gibbs] gave nd (0 of 6 replicates; controls 0 of 18).
The variant GFDLNEYGIS, VIYADGMRTAYADSVK, GNAAGTFDV [En_Gen] gave 3.4 nM (6 of 6 replicates; controls 0 of 18).
The variant GFDLNEYGIS, VIYADGKRTFYADSVK, GEAGGTFDV [En_HC] gave 1.6 nM (6 of 6 replicates; controls 0 of 18).
The variant GFDLNEYGIS, VIYADGMRTAYTDSVK, GEVAGTFDV [En_Gen] gave 310 pM (6 of 6 replicates; controls 0 of 18).
The variant GFDIDEYGIS, VIYADGRRTFYADSVK, GTNAGTFDM [En_HC] gave 300 pM (6 of 6 replicates; controls 0 of 18).
The variant GFDLNEYGIS, VIYADGMRTFYADNVK, GNVAGTFDV [En_Gen] gave 110 pM (6 of 6 replicates; controls 0 of 18).
The variant GFQLNEYGIS, VIYADGMRTMYADSFK, GMKSVNIGD [En_Gibbs] gave 17 nM (6 of 6 replicates; controls 1 of 18).
The variant GDDLEDYGIS, VIYADGRRRAYQENVK, GLYAGYFDV [En_Gibbs] gave nd (0 of 6 replicates; controls 0 of 18).
The variant GFSLDEYGVS, VIYADGLRTQYTNDVK, GLESFAFKM [En_Gibbs] gave nd (0 of 6 replicates; controls 0 of 18).
The variant GFDLEEQGVS, VIYADGKRAQYSDNVK, GYSTGFIDV [En_Gibbs] gave nd (0 of 6 replicates; controls 0 of 18).
The variant GFDLDEYGIS, VIYADGVRTAYSDSVK, GENAGTFDV [En_Gen] gave 1.7 nM (6 of 6 replicates; controls 0 of 18).
The variant GFDLNEYGIS, VIYADGSRTFYADSVK, GEAAGTFDQ [En_HC] gave 4.2 nM (6 of 6 replicates; controls 0 of 18).
The variant GFDLEEYGIS, VIYADGQRTAYADSVK, GEVAGTFDV [En_Gen] gave 850 pM (6 of 6 replicates; controls 0 of 18).
The variant GFDLNEYGIS, VIYADGMRTAYVDSVK, GNVAGTFDQ [En_Gen] gave 330 pM (6 of 6 replicates; controls 0 of 18).
The variant GFDLNEYGIS, VIYADGVRTFYADSVK, GNQAGTFDV [En_Gen] gave 320 pM (6 of 6 replicates; controls 0 of 18).
The variant GFDVNEYGIS, VIYADGSRVAIEESVK, GKIAGTFFV [En_Gibbs] gave 360 nM (1 of 6 replicates; controls 1 of 18).
The variant GFDLNEYGIS, VIYADGRRTFYADSVK, GKNAGTFDQ [En_HC] gave 240 pM (6 of 6 replicates; controls 1 of 18).
The variant GFDLNEYGIS, VIYADGKRTAYADNVK, GEVAGTFDQ [En_Gen] gave 540 pM (6 of 6 replicates; controls 0 of 18).
The variant GFDLNEYGIS, VIYADGKRTFYSDSVK, GQTAGTFDA [En_HC] gave 1.0 nM (6 of 6 replicates; controls 0 of 18).
The variant GFDLDEYGIS, VIYADGMRTAYSDSVK, GKNAGTFDV [En_Gen] gave 1.1 nM (6 of 6 replicates; controls 0 of 18).
The variant GFDLNEYGIS, VIYADGRRTAYADNVK, GQNAGTFDV [En_Gen] gave 380 pM (6 of 6 replicates; controls 2 of 18).
The variant GFDLDEYGIS, VIYADGKRTAYTDSVK, GNTAGTFDV [En_Gen] gave 280 pM (6 of 6 replicates; controls 0 of 18).
The variant GFDLDEYGIS, VIYADGMRTAYADDVK, GNVAGTFDQ [En_Gen] gave 770 pM (2 of 6 replicates; controls 0 of 18).
The variant GFDLTEYGIS, VIYADGVRTHYADDVK, GKSDGTNMA [En_Gibbs] gave nd (0 of 6 replicates; controls 0 of 18).
The variant GFDLEEYGIS, VIYADGMRTAYADSVK, GENAGTFDL [En_Gen] gave 920 pM (6 of 6 replicates; controls 1 of 18).
The variant GTDLEEYGIS, VIYADGRRAAYAQNVK, GFDGINVTY [En_Gibbs] gave 2.2 nM (6 of 6 replicates; controls 0 of 18).
The variant GFDLNEYGIS, VIYADGRRTFYSDSVK, GQLAGTFDV [En_HC] gave 240 pM (6 of 6 replicates; controls 0 of 18).
The variant GFDLNEYGIS, VIYADGRRTAYADDVK, GEVAGTFDI [En_Gen] gave 4.9 nM (6 of 6 replicates; controls 0 of 18).
The variant GFELDEYGIS, VIYADGRRTFYADSVK, GNVAGTFDQ [En_HC] gave 1.8 nM (6 of 6 replicates; controls 1 of 18).
The variant GFDLNEYGIS, VIYADGRRTFYADNVK, GNVAGTFDQ [En_HC] gave 130 pM (6 of 6 replicates; controls 0 of 18).
The variant GNSLDEYGIS, VIYADGKRTAYTDAVK, DVGSNTLVD [En_Gibbs] gave 150 nM (1 of 6 replicates; controls 0 of 18).
The variant GFTINNYGIS, VIYSDGRRTFYGDAVK, GRNDATFES [Ctrl] gave nd (0 of 6 replicates; controls 0 of 18).
The variant GADLNEYGIS, VIYADGSRTEYADTVK, GTHGGMFDS [En_Gibbs] gave 64 nM (1 of 6 replicates; controls 0 of 18).
The variant GFNLDEQGIS, VIYADGVRCSYAQSVK, GKSSGVIDV [En_Gibbs] gave nd (0 of 6 replicates; controls 0 of 18).
The variant GFQLDEYGIS, VIYADGQRTAYSKNVK, GTFDTKRID [En_Gibbs] gave nd (0 of 6 replicates; controls 0 of 18).
The variant GGDLNEYGIS, VIYADGVRKNYDDSVK, GQTGLFLNI [En_Gibbs] gave nd (0 of 6 replicates; controls 0 of 18).
The variant GKDLNEQGIS, VIYADGTRTAYANTVK, GEIAGIFPI [En_Gibbs] gave 31 µM (1 of 6 replicates; controls 0 of 18).
The variant GFDLDEYGIS, VIYADGRRTFYQDDVK, GNVAGTFDS [En_HC] gave 250 pM (6 of 6 replicates; controls 0 of 18).
The variant GFDLNEYGIS, VIYADGKRTAYADSVK, GGQAGTFDV [En_Gen] gave 3.3 nM (6 of 6 replicates; controls 0 of 18).
The variant GFDLNEYGIS, VIYADGKRTAYVDSVK, GQNAGTFDV [En_Gen] gave 2.5 nM (6 of 6 replicates; controls 0 of 18).

Again, the first 8 entries without any signal:

{"CDR-H1": "GFDLEKYGIS", "CDR-H2": "VIYADGKRVAYSDAVK", "CDR-H3": "GGTGGMLMS", "group": "En_Gibbs", "Kd (apparent)": "nd", "replicates with signal": "0 of 6", "control signals": "0 of 18"}
{"CDR-H1": "GFDINEYGIS", "CDR-H2": "VIYADGMRKAYVQNVK", "CDR-H3": "GENARSVQI", "group": "En_Gibbs", "Kd (apparent)": "nd", "replicates with signal": "0 of 6", "control signals": "0 of 18"}
{"CDR-H1": "GFNFDEYGIS", "CDR-H2": "VIYADGKRNFYSDSVK", "CDR-H3": "GYITGFMEV", "group": "En_Gibbs", "Kd (apparent)": "nd", "replicates with signal": "0 of 6", "control signals": "0 of 18"}
{"CDR-H1": "GFDLESYGIS", "CDR-H2": "VIYADGMRTSYTANVK", "CDR-H3": "GKNVMIMTG", "group": "En_Gibbs", "Kd (apparent)": "nd", "replicates with signal": "0 of 6", "control signals": "0 of 18"}
{"CDR-H1": "GDDLEDYGIS", "CDR-H2": "VIYADGRRRAYQENVK", "CDR-H3": "GLYAGYFDV", "group": "En_Gibbs", "Kd (apparent)": "nd", "replicates with signal": "0 of 6", "control signals": "0 of 18"}
{"CDR-H1": "GFSLDEYGVS", "CDR-H2": "VIYADGLRTQYTNDVK", "CDR-H3": "GLESFAFKM", "group": "En_Gibbs", "Kd (apparent)": "nd", "replicates with signal": "0 of 6", "control signals": "0 of 18"}
{"CDR-H1": "GFDLEEQGVS", "CDR-H2": "VIYADGKRAQYSDNVK", "CDR-H3": "GYSTGFIDV", "group": "En_Gibbs", "Kd (apparent)": "nd", "replicates with signal": "0 of 6", "control signals": "0 of 18"}
{"CDR-H1": "GFDLTEYGIS", "CDR-H2": "VIYADGVRTHYADDVK", "CDR-H3": "GKSDGTNMA", "group": "En_Gibbs", "Kd (apparent)": "nd", "replicates with signal": "0 of 6", "control signals": "0 of 18"}

Values of this round are not directly comparable with the first-round values of the same sequences. The authors averaged sequences with at least three values out of six and counted those with two or fewer as poor binders. Background: pairings of all heavy chain designs with three empty control strains gave a value in 1% of cases (median 120 nM, 5th percentile 7.0 nM). Values in that range, when seen in few replicates, are hard to tell from nonspecific mating. Also given: how often the same scFv was detected with the empty control strains.

The measurements come from Li et al. 2023 (doi:10.1038/s41467-023-39022-2) through the FLAb antibody collection.